Antibody variant affinities, Ab-91 heavy chain, assay 2

Reference: Engelhart et al. 2022, doi:10.1038/s41597-022-01779-4. File: FLAb, binding data.

Binding partner: SARS-CoV-2 spike HR2 peptide, sequence PDVDLGDISGINAS.

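The parent was found by panning a naive human phage display library on the peptide. The library (AAYL51) carries one to three amino acid substitutions per variant, with no insertions or deletions. The scFvs were displayed on barcoded MATa yeast, the peptide on MATalpha yeast. The frequency of each diploid, read from paired DNA barcodes, reflects how well the two displayed proteins bind. A regression on co-assayed BCL2-family reference pairs converts the normalised counts of each replicate to an apparent Kd. There are three technical replicates.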

Parent: Ab-91, a human scFv built as VL, a (GGGGS)3 linker, VH. Only the CDRs of the heavy chain vary.
VL: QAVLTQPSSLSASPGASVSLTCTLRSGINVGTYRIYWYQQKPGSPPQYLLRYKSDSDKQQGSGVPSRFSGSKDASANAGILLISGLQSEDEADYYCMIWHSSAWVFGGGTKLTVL
VH: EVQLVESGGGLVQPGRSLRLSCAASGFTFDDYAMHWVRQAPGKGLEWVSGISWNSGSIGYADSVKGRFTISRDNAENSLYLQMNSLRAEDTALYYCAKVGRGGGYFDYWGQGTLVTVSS

Changes read parent residue, position, new residue, counted from the first residue of the VH shown.
Values are apparent Kd, the geometric mean of the replicates that gave a signal; lower means stronger binding.
"not detected" marks a missing value. The strain was present, yet no cells mated with the target were sequenced in any replicate, which points to weak or no binding.
Entries are sorted by rising average, undetected variants last.
Background: pairings of library AAYL51 with three empty control strains gave a value in 21% of cases (median 34 µM, 5th percentile 1.8 µM). Values in that range, when seen in few replicates, are hard to tell from nonspecific mating. Also given: how often the same scFv was detected with the empty control strains.

changes,apparent Kd,seen in,control signals
G26P F29P S57I,7.6 nM,3/3,0/9
D31A S52N I58S,17 nM,3/3,2/9
S63H G104Q D107F,90 nM,3/3,2/9
T28S A61S,97 nM,3/3,1/9
F29P G56D Y108T,190 nM,3/3,6/9
G56P S57V Y108L,490 nM,3/3,4/9
D62K G102L F106Q,1.2 µM,3/3,3/9
V99M R101F G104T,1.4 µM,1/3,3/9
G50K I58M Y60P,1.7 µM,1/3,4/9
I58S G59A Y108L,1.9 µM,3/3,1/9
A61C S63G F106N,2.1 µM,3/3,5/9
Y32C S52A G102N,3.8 µM,1/3,0/9
S57R F106R,3.8 µM,1/3,4/9
Y60D K65E R101M,3.9 µM,1/3,1/9
S52I G56Q S57M,5.6 µM,1/3,2/9
T28R D30W S55C,5.7 µM,3/3,3/9
D30Q N54E V64M,6.7 µM,1/3,2/9
F27Y I58H Y105T,11 µM,2/3,2/9
D30K Y60C R101C,11 µM,1/3,0/9
G26C F27L S52T,11 µM,1/3,1/9
N54Q S63N G103N,17 µM,2/3,4/9
D30Q D62H Y108R,23 µM,3/3,9/9
G26M Y108P,26 µM,2/3,6/9
A33D K65Y G100M,27 µM,1/3,0/9
F29P G50L Y105H,28 µM,1/3,1/9
A33D M34W V64I,31 µM,1/3,2/9
G102T Y108G,43 µM,3/3,6/9
F29H I51F Y60N,48 µM,1/3,1/9
F29C H35A G102F,52 µM,2/3,2/9
W53P Y60K S63Q,53 µM,3/3,7/9
M34A G50N V64M,56 µM,2/3,8/9
F27N G50C G102F,62 µM,2/3,5/9
F27P I58C F106E,68 µM,3/3,5/9
V99H G100Y D107L,76 µM,3/3,6/9
I51R Y60H A61T,86 µM,1/3,1/9
D31S H35N S57M,88 µM,1/3,1/9
G26K I51K,88 µM,3/3,6/9
D30E A33T G59S,96 µM,2/3,3/9
M34Y I51M S57G,110 µM,2/3,6/9
H35N V64Y G104Y,140 µM,1/3,6/9
M34H K65Q G102K,150 µM,2/3,7/9
F27Q S57Y Y60W,160 µM,1/3,0/9
Y32I N54F,260 µM,3/3,6/9
M34Y V99Y Y108I,350 µM,1/3,2/9
A33H I51W W53G,440 µM,2/3,6/9
H35I S57M Y60E,not detected,0/3,1/9
I51W N54A V99S,not detected,0/3,4/9
F29C A33D G102P,not detected,0/3,0/9
I58D K65D G100V,not detected,0/3,0/9
I51D G59H V64C,not detected,0/3,0/9
Y32N N54F K65V,not detected,0/3,1/9
G59F G104Y,not detected,0/3,0/9
H35M I51F G59A,not detected,0/3,0/9
F27H W53M D62Y,not detected,0/3,0/9
S57F G102A Y108Q,not detected,0/3,0/9
G56D Y60E Y105E,not detected,0/3,1/9
D30R G59F S63K,not detected,0/3,1/9
F27K V99F Y105P,not detected,0/3,1/9
D31G G59D,not detected,0/3,0/9
A33I S63T V64I,not detected,0/3,0/9
G50W V64C Y105K,not detected,0/3,0/9
D31L G104V,not detected,0/3,0/9
D31K S52Y D107C,not detected,0/3,0/9
D30G W53I N54R,not detected,0/3,2/9
H35V I58E G100M,not detected,0/3,0/9
A33G D62W G102W,not detected,0/3,0/9
A33I N54R V64P,not detected,0/3,0/9
S52N I58W D107N,not detected,0/3,0/9
A61C D62Y V99C,not detected,0/3,0/9
F27C G56S S57N,not detected,0/3,0/9
F29Y I58C Y60N,not detected,0/3,0/9
S52G G59F,not detected,0/3,2/9
G26P G50T S52F,not detected,0/3,0/9

Top 11 of the variants detected in all replicates, tightest first:

changes,apparent Kd,seen in,control signals
G26P F29P S57I,7.6 nM,3/3,0/9
D31A S52N I58S,17 nM,3/3,2/9
S63H G104Q D107F,90 nM,3/3,2/9
T28S A61S,97 nM,3/3,1/9
F29P G56D Y108T,190 nM,3/3,6/9
G56P S57V Y108L,490 nM,3/3,4/9
D62K G102L F106Q,1.2 µM,3/3,3/9
I58S G59A Y108L,1.9 µM,3/3,1/9
A61C S63G F106N,2.1 µM,3/3,5/9
T28R D30W S55C,5.7 µM,3/3,3/9
D30Q D62H Y108R,23 µM,3/3,9/9

For reference, the parent read 72 nM as the reference entry and 7.5 nM as a member of this library.